Values of other authors, collected in patent publication US20170165293A1, “METHOD AND APPARATUS FOR SCAVENGING PLASMA FREE HEMOGLOBIN” (GENO LLC, priority 2015, published 2017).

System: free water-induced intravascular hemolysis
Details: free water-induced hemolysis compared with D5W and D5W plus NO; cited from earlier work

Question: For sodium nitroprusside, which “percent change in CI in response to increasing doses of sodium nitroprusside” value is on record?
Answer: Its value is “blunted”.

Question: What about the “percent change in SVRI in response to increasing doses of sodium nitroprusside” value of the same substance?
Answer: The value was “blunted”.

Some compounds may have been tested in ways that are not shown here.
